Inhibition data for 2 compounds are collected here from PubChem BioAssay AID493221 (Johns Hopkins Ion Channel Center, 2011).

Chains of the proteins cited; added tags and fusions are not shown. Lines headed by an entry give the natural chain unless they say otherwise; changes in a name come on top.
UniProt Q9GZV3, whole entry, stated change not applied: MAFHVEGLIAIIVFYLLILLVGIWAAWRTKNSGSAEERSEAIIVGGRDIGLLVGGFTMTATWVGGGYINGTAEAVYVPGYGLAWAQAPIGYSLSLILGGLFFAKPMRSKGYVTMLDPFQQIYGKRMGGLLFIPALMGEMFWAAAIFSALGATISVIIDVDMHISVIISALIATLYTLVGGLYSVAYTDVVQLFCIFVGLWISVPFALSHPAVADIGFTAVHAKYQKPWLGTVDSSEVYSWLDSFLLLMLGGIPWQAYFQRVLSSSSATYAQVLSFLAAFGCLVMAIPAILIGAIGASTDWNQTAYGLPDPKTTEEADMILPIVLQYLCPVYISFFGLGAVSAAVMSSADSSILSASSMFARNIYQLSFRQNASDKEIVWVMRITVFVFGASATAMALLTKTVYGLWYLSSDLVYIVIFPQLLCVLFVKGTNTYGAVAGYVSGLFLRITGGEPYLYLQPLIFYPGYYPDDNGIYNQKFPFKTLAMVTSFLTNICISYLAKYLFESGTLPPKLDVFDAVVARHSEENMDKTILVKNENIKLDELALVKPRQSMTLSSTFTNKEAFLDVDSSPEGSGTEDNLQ

The list shows a part of the results, in another mix than the full data. The source made the active and inactive calls.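 Rule for the calls: active = choline transporter activity left, mean of duplicates at 10 µM, below buffer-only control mean minus 3 SD; inactive = the rest.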

As a reminder, the inhibition is the relative decrease from the control value, in per cent.

This assay has as its target High affinity choline transporter 1 (Homo sapiens) (UniProt Q9GZV3). Kind of assay: CHT inhibitors, confirmation, cell-based, membrane potential dye, duplicate (AID 493221). Conditions: CHT-expressing cells, at 10 µM, LV-to-AA substituted CHT, HEK293 cells.
With `CC1=NCCc2c1[nH]c1ccccc21.O=[N+]([O-])c1cc([N+](=O)[O-])c(O)c([N+](=O)[O-])c1`, the inhibition was active: 42.9%.

`O=[N+]([O-])c1cc([N+](=O)[O-])c(Nc2ccccn2)c([N+](=O)[O-])c1`: the inhibition is active: 68.7%.
